Among the data in ChEMBL document CHEMBL5230145, “Bifunctional μ opioid and σ1 receptor ligands as novel analgesics with reduced side effects” (Eur J Med Chem, 2021) are Ki values, retold here.

Chains of the proteins cited; added tags and fusions are not shown.
UniProt Q60492, whole entry, looked up: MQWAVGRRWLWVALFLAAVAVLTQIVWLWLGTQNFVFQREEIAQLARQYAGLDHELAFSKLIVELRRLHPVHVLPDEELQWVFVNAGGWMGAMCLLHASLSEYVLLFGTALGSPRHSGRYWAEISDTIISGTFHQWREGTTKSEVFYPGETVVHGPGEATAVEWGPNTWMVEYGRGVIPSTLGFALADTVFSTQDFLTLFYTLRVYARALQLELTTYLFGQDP

The target in the assay is Sigma non-opioid intracellular receptor 1 (Cavia porcellus, UniProt Q60492). Put plainly: Displacement of [3H]pentazocine from guinea pig brain membrane sigma 1 receptor incubated for 120 mins. Background: In a radioligand displacement assay an active substance lowers the binding of a labelled ligand.

Structures are written as SMILES.

Molecule `C[C@@H]1[C@@H]2Cc3ccc(O)cc3[C@]1(C)CCN2CCc1ccccc1` returned a Ki of 3.9 nM.

For `C[C@H]1[C@H]2Cc3ccc(O)cc3[C@@]1(C)CCN2CCc1ccccc1`, the Ki is 61.7 nM.

As a reminder, the Ki is the equilibrium dissociation constant of an inhibitor or competing ligand from its target. High values mean a looser hold on the target, low ones a stronger hold on the target.
